Assay outcomes: PubChem BioAssay, National Center for Advancing Translational Sciences (NCATS)
Sampled rows, rich in hits. Any-hit rate of the full collection: about 2.2%.
Nrf2 ARE act – Nrf2 pathway activation. Potency, µM (titrated, usually from 46.1 µM), actives largely listed as activators. AID 624171. AREc32 ARE-luciferase reporter (MCF7-derived line), luminescence, 24 h. 0.31% of 410,000 active; note: nearly all actives have a fitted effect of over 65% in size
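Nrf2 activation is followed as ARE-luciferase induction in the AREc32 line after one day of compound treatment; luminescence is read with Steady-Glo.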
GALK inhibitor – galactokinase (human) inhibition. Potency, µM (top dose mostly 57.5 µM), usual class: inhibitors. AID 1868. Purified GALK, Kinase-Glo residual ATP luminescence. 0.007% of 270,000 active. P51570
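Compounds were pin-transferred into ATP buffer (35 uM final), then GALK plus galactose (5 nM, 100 uM final) was added. After 1 h at room temperature, Kinase-Glo Plus was added and luminescence read after 10 min.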
miR-21 FLuc – raises the signal of a miR-21 reporter | AID 2288 | 340,000 tested, under 10 active | Potency, µM (series often up to 38.3 µM) | HeLa miR-21 FLuc reporter, luciferase, 48 h; active = well fitted rising curve with a large enough effect; inconclusive = small, poorly fitted or top-dose-only effect; inactive = no such curve, though single readings can be large or run the other way;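 further: miR-21 action dims this reporter so a rising signal means less miR-21 action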
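Luminescence from a firefly luciferase reporter carrying a miR-21 binding site downstream, stably expressed under a CMV promoter in HeLa cells that make miR-21 endogenously, reports miRNA modulation after 48 h compound exposure up to approximately 40uM final.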
Nrf2 inh – inhibitors of Nrf2 signaling. 2.1% of 360,000 active. A549 ARE-Fluc reporter, luciferase luminescence, 18-24 h. Potency, µM (doses to about 46 µM), hits mostly inhibitors; note: nearly all actives have a fitted effect of over 60% in size
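Concentration-response testing used A549 ARE_Fluc cells at 5000 cells/well. Following an 18-24 h compound incubation, viability was read by fluorescence (Ex 405/Em 525) and luciferase output by luminescence.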
A549 tox – counter-screen for Nrf2 inhibitors: cytotoxicity in A549 cells; A549 ARE-Fluc cells, CellTiter-Fluor viability, 18-24 h; Potency, µM (titrated, usually from 46 µM), usual class: inhibitors; 0.16% of 390,000 active; AID 504648
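Cytotoxicity counterscreen: CellTiter-Fluor fluorescence was measured in A549 ARE_Fluc cells after 18-24 h of compound exposure in a concentration series. The subsequent BugLite luminescent read reports ARE-luciferase activity.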
PI4K2A inh – blocks human PI4K2A kinase activity. activity change, negative = inhibition, % at 76.9 µM. Q9BTU6. 0.13% of 420,000 active. purified PI4K2A, ADP-Glo luminescence, 1 h; active compounds read low; in the data active = activity change below about -50%; inconclusive = mostly about -30% to -49%
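In this quantitative HTS, ADP production by PI4K2A was quantified luminescently after 1 h at ambient temperature; 100 microM adenosine served as plate-quality control.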
Numbers stand for hits; – = inactive; ? = inconclusive; · = no result. Unless noted, calls come from the whole dose curve; as a rule, active = well fitted curve in the direction sought with a large enough effect; inconclusive = small, poorly fitted or top-dose-only effect, or another doubt; inactive = no such curve, though single readings can be large; an effect the other way counts as inactive or inconclusive.

SMILES | Nrf2 ARE act | GALK inhibitor | miR-21 FLuc | Nrf2 inh | A549 tox | PI4K2A inh
CCCNC(=O)N1[C@H]2CC[C@@H]1C(C(=O)OC)=C(c1ccc(-c3ccccc3)c(F)c1)C2 | – | · | · | 16µM | – | –
COC(=O)C1=C(c2ccc(OC)c(OC)c2)C[C@@H]2CC[C@H]1N2C(=O)NCCOc1ccccc1Cl | – | · | · | – | – | –
COC(=O)C1=C(c2ccc(-c3ccccc3)c(F)c2)C[C@@H]2CC[C@H]1N2C(=O)NCc1ccco1 | – | · | · | 15µM | – | –
C[C@]12CC[C@H]3[C@@H](CCC4=CC(=O)CC[C@@]43C)[C@@H]1CC[C@@H]2C(=O)O | · | · | · | · | · | –
O=C(CBr)Nc1ccc(Cl)cc1C(=O)c1ccccc1F | · | · | · | · | · | –
Cc1cc(O)c2c(c1)C(=O)[C@@]13C(=C2O)C(=O)[C@H]2C(O)[C@@H]1[C@H]1C(O)[C@@H]3C(=O)C3=C(O)c4c(O)cc(C)cc4C(=O)[C@@]312 (stereo partly specified) | · | · | · | · | · | -76
COP(=S)(OC)Oc1ccc(S(N)(=O)=O)cc1 | · | · | · | · | · | –
CC#C[C@]1(O)CC[C@H]2[C@@H]3C[C@H](C)C4=CC(=O)CC[C@]4(C)[C@H]3CC[C@@]21C | · | · | · | · | · | –
O=C(CSc1nc(-c2cccs2)nc2cc(=O)[nH]n12)Nc1ccc(F)cc1 | ? | · | – | – | – | –
Cc1c2ccncc2c(C)c2c1[nH]c1ccccc12 | – | – | ? | 7.3µM | ? | –
c1ccc2c(c1)[nH]c1cnccc12 | – | – | – | – | – | –
O=[N+]([O-])c1ccc(N2CCCC2)cc1N/N=C1\CN2CCC1CC2 | – | · | – | – | 9.2µM | –
CCOc1ccc(S(=O)(=O)N(CC(=O)NCc2ccccc2OC)c2ccccc2)cc1 | – | · | – | 16µM | – | –
C[C@H]1[C@H](OC(=O)CCC(=O)NCc2ccc(C(=O)O)cc2)O[C@@H]2O[C@@]3(C)CC[C@H]4[C@H](C)CC[C@@H]1C24OO3 | – | – | ? | 21µM | 21µM | –
CC(C)c1ccc(NC(=O)Cn2c(=O)oc3cc(S(=O)(=O)N4CCCC4)ccc32)cc1 | – | · | ? | 21µM | – | –
CCC(=O)C(CCN(C)C)(c1ccccc1)c1ccccc1 | · | · | · | · | · | –
Cc1ccc(NC(=O)C2CCCN(c3ncnc4onc(C)c34)C2)c(Cl)c1 (stereo unspecified) | – | · | – | 26µM | – | –
Cc1ccc(Sc2ccc(N3CCCC(C(=O)Nc4ccc(Cl)cc4)C3)nn2)cc1 (stereo unspecified) | – | · | – | ? | – | –
O=C1NC2C(=CC(O)C(O)C2O)c2cc3c(cc21)OCO3 (stereo unspecified) | – | · | · | 2.1µM | ? | –
Cc1c(N=Nc2c(O)n(Cc3ccccc3)c(=O)[nH]c2=O)c(=O)n(-c2ccccc2)n1C | – | – | – | 5.2µM | 16µM | –
CCC(C(=O)Nc1ccccc1C(=O)OC)n1nc(C)c2c(C)n(-c3ccc(C)cc3)nc2c1=O (stereo unspecified) | – | · | – | 18µM | – | –
CCN[C@H](C)Cc1cccc(C(F)(F)F)c1 | · | · | · | · | · | –
O=C(CCC1CCCC1)c1c(O)c2ccccc2oc1=O | – | – | – | 21µM | ? | –
Cc1ccc(Cn2c(=O)n(CCCCC(=O)NCc3ccccc3Cl)c(=O)c3ccccc32)cc1 | – | · | – | ? | – | –
